Screening results: PubChem BioAssay, Broad Institute
A selection: hits, their analogues and other compounds. The true share with any hit is near 2.8%.
esBAF inh: SWI/SNF esBAF complex inhibition; AID 602393; mouse ES cells, Bmi1-luciferase knock-in reporter, 24 h; 100% = twice the neutral-well signal; reporter increase, % at 12.5 µM; 350,000 compounds, 2% hits; in the data active = activation above about 40%; inconclusive = no clear call, values can overlap the other calls;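 note: a rise in the Bmi1 reporter signal indicates esBAF inhibition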
PglD inh: PglD (C. jejuni) enzyme inhibition; AID 602405; inhibition, % at 12.5 µM; 360,000 compounds, 0.098% hits; purified PglD enzyme, DTNB colorimetric CoA detection; in the data active = inhibition above about 16%, passing the limit was not always enough; inconclusive = no clear call, values can overlap the other calls
Wnt act: Wnt/beta-catenin pathway activation | activation, % at 9.35 µM | 300,000 compounds, 1.2% hits | Wnt/beta-catenin reporter cell assay, activator, plate reader; in the data active = activation above about 30%, passing the limit was not always enough; inconclusive = no clear call, values can overlap the other calls
miR122 inh: miR-122 inhibition in Huh7 cells; 340,000 compounds, 0.3% hits; activation (reporter increase), % at 12.5 µM; Huh7 miR-122 Renilla luciferase sensor, 48 h; neutral wells = 0, positive control = 100;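 active = mean replicate activation score at least 90 and every replicate individually at or above 90; inconclusive = only one of the two criteria met; inactive = neither criterion met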;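 note: higher luciferase means less miR-122 activity so hits act as miR-122 inhibitors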
Yeast UUG start: modulators of start codon recognition fidelity in yeast; AID 602363; hit rate 0.13% among 350,000; activity score, % at 18.7 µM; S. cerevisiae UUG-firefly luciferase reporter, luminescence/redox ratio;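 active = replicate mean at a twofold rise or more, about +100% in these data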;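 note: firefly luciferase made from a UUG start codon reports start codon fidelity; reporter light over untreated wells divided by growth signal over untreated wells; some hits fall short of that in this replicate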
MITF act: activators of MITF-driven TRPM1 promoter activity in SK-MEL-5 cells; SK-MEL-5 TRPM1-promoter luciferase, 24 h; % of positive control, neutral wells = 0; 300,000 compounds, 0.75% hits; activation, % at 12.5 µM;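 active = mean activation of at least 80% with every replicate also reaching 80%; inconclusive = mean reaches 80% but some replicate falls short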
Of the large screens only hits and unclear results are named; the others gave an inactive call.

Cc1ccc(C(=O)NCCC(=O)N2CCOCC2)cc1	Wnt act 37 (no result: esBAF inh, PglD inh, miR122 inh)
CC(C)(C)c1ccc(C(=O)NCCC(=O)N2CCCC2)cc1	esBAF inh 47
CSc1ccc(C(=O)/C=C/c2ccc(N)cc2)cc1	esBAF inh 66, Wnt act 67 (no result: PglD inh, Yeast UUG start)
CSc1ccc(/C=C/C(=O)c2c(O)cc(C)oc2=O)cc1	esBAF inh 54
COc1ccc(/C=C/C(=O)c2c(O)cc(C)oc2=O)c(OC)c1	esBAF inh 64
C[C@@H]1CN([C@H](C)CO)C(=O)c2cccc(NC(=O)Nc3ccc(F)cc3)c2O[C@@H]1CN(C)Cc1ccc(-c2ccccc2)cc1	none (no result: Wnt act, MITF act)
S=C(Nc1ccccc1)Nc1ccc2cn[nH]c2c1	Wnt act 33 (no result: PglD inh, Yeast UUG start)
Cc1ccc(NC(=S)Nc2ccc3cn[nH]c3c2)cc1	none (no result: esBAF inh, PglD inh, miR122 inh, Yeast UUG start)
CO[C@H]1CN(C)C(=O)c2cc(NC(=O)Nc3ccccc3)ccc2OC[C@@H](C)N(C(=O)CC2CC2)C[C@@H]1C	none (no result: Wnt act, miR122 inh, Yeast UUG start, MITF act)
CC(=O)N1c2ccc(S(=O)(=O)NCCc3ccccc3)cc2CC1C (stereo unspecified)	miR122 inh 153
CC1Cc2cc(S(=O)(=O)NCCc3ccccc3)ccc2N1C(=O)C1CC1 (stereo unspecified)	miR122 inh 132 (no result: PglD inh, Yeast UUG start)
CC(=O)N1c2c(cc(Br)cc2S(=O)(=O)NCc2ccccc2)CC1C (stereo unspecified)	miR122 inh 125 (no result: PglD inh, Yeast UUG start)
COc1cccc(CNS(=O)(=O)c2ccc3c(c2)CC(C)N3C(=O)C2CC2)c1 (stereo unspecified)	none
Cc1ccccc1-n1c(C)nnc1SCc1nc2ccccc2s1	esBAF inh 69 (no result: miR122 inh)
CCCCn1c(SCc2nc3ccccc3s2)nc2ccccc2c1=O	none (no result: esBAF inh)
CCCn1c(=O)c2ccccc2n2c(SCc3nc4ccccc4s3)nnc12	esBAF inh 42
CCOc1ccccc1-n1nnnc1SCc1nc2ccccc2s1	none (no result: Wnt act)
CCn1c(SCc2nc3ccccc3s2)nnc1-c1cccs1	esBAF inh 50 (no result: Wnt act)
CCN(CC)C(=O)c1nc(-c2cccc3ccccc23)no1	esBAF inh 70, Wnt act 75 (no result: MITF act)
CCN(CC)C(=O)c1c2c(nc3ccccc13)-c1ccccc1CC2	none (no result: esBAF inh, PglD inh, Wnt act, Yeast UUG start)
CCCN1C[C@H](C)[C@@H](OC)CN(C)C(=O)c2ccc(NC(=O)C3CC3)cc2OC[C@@H]1C	none (no result: Wnt act, miR122 inh, MITF act)
CC(=O)c1ccc(OC(=O)Oc2ccc(C(C)=O)cc2)cc1	none (no result: esBAF inh, PglD inh, miR122 inh, Yeast UUG start)
CC(=O)c1ccc(Oc2ccc(C(C)=O)cc2)cc1	esBAF inh 42
O=C(NCc1ccccc1)c1c[nH]c2ccc(S(=O)(=O)Nc3ccc4c(c3)OCCO4)cc2c1=O	none
O=C(NCc1cccnc1)c1c[nH]c2cc3c(cc2c1=O)OCCO3	esBAF inh 62 (no result: Wnt act, MITF act)
O=C(Nc1cc(F)ccc1F)N1C[C@@H]2[C@H](c3ccccc31)[C@H](CO)N2Cc1cccnc1	none (no result: Wnt act, MITF act)
Cc1nc2c(-c3ccc(Cl)cc3)cnn2c(N)c1-c1ccc(F)cc1	none (no result: MITF act)
Nc1c(-c2ccc(Cl)cc2)cnc2c(-c3ccc(F)cc3)cnn12	esBAF inh inconclusive, Wnt act 46, MITF act 111
Nc1c(-c2cccc(Cl)c2)cnn1-c1ccccc1	esBAF inh 52
Nc1c(-c2cccc(Cl)c2)cnc2c(-c3ccccc3)cnn12	esBAF inh 60, Wnt act 45
Nc1c(-c2ccccc2)cnc2ncnn12	none (no result: Wnt act, MITF act)
CN1CCN(C(=O)C[C@H]2CC[C@@H]3[C@H](COC[C@H](O)CN3Cc3cccc(F)c3)O2)CC1	none (no result: Wnt act, Yeast UUG start, MITF act)
CC(C)NC(=O)N(C)C[C@H]1Oc2ncc(C#CCc3ccccc3)cc2C(=O)N([C@@H](C)CO)C[C@H]1C	none (no result: Wnt act, MITF act)
OC1CCCCC1Sc1nc2ccccc2s1 (stereo unspecified)	esBAF inh 53
Cc1nc(-c2ccccn2)sc1C(=O)Nc1ccc(F)cc1F	esBAF inh 58 (no result: PglD inh, Wnt act, MITF act)
C[C@@H]1CCCCO[C@@H](CN(C)C(=O)NC2CCCCC2)[C@H](C)CN([C@H](C)CO)C(=O)c2cc(NS(=O)(=O)c3ccc(F)cc3)ccc2O1	none (no result: Wnt act, MITF act)
O=C(Nc1ccc2c(c1)OCCO2)C(c1ccc(C(F)(F)F)cc1)n1c(=O)c(-c2cc3ccccc3[nH]2)nc2ccccc21 (stereo unspecified)	none (no result: esBAF inh, PglD inh, miR122 inh, Yeast UUG start, MITF act)
